Holding throughout (settings): 1% peptone, 2 × 10^6 CFU/mL, 16 h, 37 °C
In assay [1] the test system is S. typhimurium (KCTC 1926). The method, then:
(§1) The antimicrobial activities of Pap12 peptides were tested against four standard Gram-negative bacteria (E. coli, Pseudomonas aeruginosa, Acinetobacter baumannii, and Salmonella typhimurium), three standard Gram-positive bacteria (Staphylococcus aureus, Bacillus subtilis, and Staphylococcus epidermidis), and five MDR bacteria (MDREC CCARM 1229, MDRPA CCARM 2002, MDRAB CCARM 12035, MDRST CCARM 8007, and MRSA CCARM 3126) using the microbroth dilution method. The relative antibacterial activities were compared based on geometric means of MICs (GM).
(§2) Escherichia coli (KCTC 1682), Pseudomonas aeruginosa (KCTC 2004), Acinetobacter baumannii (KCTC 2508), Salmonella typhimurium (KCTC 1926), Bacillus subtilis (KCTC 3068), Staphylococcus aureus (KCTC 1621), and Staphylococcus epidermidis (KCTC 1917) were purchased from the Korean Collection for Type Cultures, Korea Research Institute of Bioscience & Biotechnology (Taejon, Korea). Clinical isolates of MDR E. coli (MDREC; CCARM 1229), P. aeruginosa (MDRPA; CCARM 2002), A. baumannii (MDRAB; CCARM 12035), S. typhimurium (MDRST; CCARM 8007), and S. aureus (MDRSA; CCARM 3126) were supplied by the Culture Collection of Antibiotic-Resistant Microbe (CCARM) at Seoul Women’s University in Korea. The E. coli K1 strain RS218 (O18:K1:H7) was kindly provided by Dr. Jang-Won Yoon of Kangwon National University (Gangwon-do, Korea).
(§3) Peptides were treated with 2 × 10^6 CFU/mL bacterial suspensions in 1% peptone media for 16 h at 37 °C.

The test system of a further assay is B. subtilis (KCTC 3068). As for the experimental part: as §1, §2, §3
The subject of a further assay is E. coli (KCTC 1682). As for the experimental part:
as §1, §2, §3

The next assay deals with S. aureus (KCTC 1621). The method, then: as §1, §2, §3
The test system of assay [2] is P. aeruginosa (KCTC 2004). The method, then:
as §1, §2, §3

Molecules are shown by their SMILES. In brackets after ≈: the same amount, converted by molar mass.

As for `CC[C@H](C)[C@H](NC(=O)CN)C(=O)NCC(=O)N[C@@H](C)C(=O)N[C@H](C(=O)N[C@@H](CC(C)C)C(=O)N[C@@H](CCCCN)C(=O)N[C@H](C(=O)N[C@@H](CC(C)C)C(=O)N[C@H](C(=O)N[C@H](C(=O)NCC(=O)N[C@@H](CC(C)C)C(=O)N1CCC[C@H]1C(=O)N[C@@H](C)C(=O)N[C@@H](CC(C)C)C(=O)N[C@H](C(=O)N[C@@H](CO)C(=O)N[C@@H](Cc1c[nH]c2ccccc12)C(=O)N[C@H](C(=O)N[C@@H](CCCCN)C(=O)N[C@@H](CCCNC(=N)N)C(=O)N[C@@H](CCCCN)C(=O)N[C@@H](CCCNC(=N)N)C(=O)N[C@@H](CCC(N)=O)C(=O)N[C@@H](CCC(N)=O)C(N)=O)[C@@H](C)CC)[C@@H](C)CC)[C@@H](C)O)[C@@H](C)O)C(C)C)C(C)C` [Melittin, reference compound], the “Minimal inhibitory concentration (MIC), S. typhimurium” value in assay [1] turned out to be 4 µM (≈ 11.4 µg/mL). The “Minimal inhibitory concentration (MIC), B. subtilis” value in the assay with B. subtilis (KCTC 3068) worked out at 2 µM (≈ 5.69 µg/mL). In addition, the “Minimal inhibitory concentration (MIC), E. coli” value in the assay on E. coli (KCTC 1682) amounted to 4 µM (≈ 11.4 µg/mL). Moreover, the “Minimal inhibitory concentration (MIC), S. aureus” value in the assay with S. aureus (KCTC 1621) stood at 4 µM (≈ 11.4 µg/mL). Besides, the “Minimal inhibitory concentration (MIC), P. aeruginosa” value in assay [2] is 8 µM (≈ 22.8 µg/mL).

Values taken from article PMC6405874, “Development of a novel short 12-meric papiliocin-derived peptide that is effective against Gram-negative sepsis” (Scientific Reports, 2019).
